The record followed here is paper PMC9318729, “Scorpion Peptide Smp24 Exhibits a Potent Antitumor Effect on Human Lung Cancer Cells by Damaging the Membrane and Cytoskeleton In Vivo and In Vitro” (Toxins, 2022).

The subject of this data set is A549 cells. Description: Effect of pathway inhibitors on Smp24-induced cytotoxicity (MTT and LDH release). In kind it is cell-based, human. Conditions: inhibitor pre-incubated 30 min (40 μM Necrostatin-1, 1 μM Cyclosporine A), then 5 μM Smp24 for 12 h. The procedure: MTT assay was performed to analyze cellular viability as previously reported by us. […] To determine which signal pathway is primarily responsible for the cytotoxic effects of Smp24 on A549 cells, various inhibitors including 40 μM Necrostatin-1, 40 μM Z-DEVD-FMK, and 1 μM cyclosporine A were pre-incubated with A549 cells for 30 min before 5 μM Smp24 was incubated with the cells for 12 h. After incubation, 10 µL MTT (5 mg/mL) was added before incubation for 4 h at 37 °C in the dark. Subsequently, the cell medium was discarded, and 200 µL DMSO was applied into each well before the absorbance value at 490 nm was determined via the microplate reader (Tecan Company, Männedorf, Switzerland). Cell proliferation was further detected by the BeyoClick™ EdU cell proliferation kit with Alexa Fluor 488 (Beyotime Institute of Biotechnology, Shanghai, China) according to the protocol of manufacturer. […] Then, the cells were incubated with EdU for 2 h and stained with Alexa Fluor 488 for 30 min in the dark before cell fluorescence intensity was measured by flow cytometry (Becton Dickinson Company, Franklin Lakes, NJ, USA). […]
The LDH release assay was carried out with a commercial kit (Beyotime Institute of Biotechnology, Shanghai, China) following the manufacturer’s manual. […] Thereafter, a microplate reader (Tecan Company, Männedorf, Switzerland) was used to measure the absorbance value at 490 nm. […]

As to Cyclosporine A, the “Inhibition of Smp24-induced cytotoxicity and necrosis of A549” value is given as “cannot inhibit”.
